Measurements published in patent US9138659B2, “Compositions, methods, and systems relating to controlled crystallization and/or nucleation of molecular species” (Massachusetts Institute of Technology, priority 2010, dated 2015).

Columns and labels:
[1] = Partition coefficients of CBZ and ROY in PEGMDA microgels from ethanol solutions; format: physicochemical; conditions: PEGMDA gels
[2] = CBZ nucleation induction time and polymorphic outcome with PEGMDA microgels in ethanol; format: physicochemical
Text: Results and Discussion: Monodispersed cubelike PEGMDA microgels (FIG. 27 left), with M ranging from 130 to 700 g/mol were synthesized by Stop-Flow Lithography, The mesh sizes vary from 0.7 to 1.5 nm in solvent ethanol (Table 9), estimated from equilibrium swelling by the Flory-Rehner theory. The accuracy of this method for obtaining mesh sizes has been confirmed with Small-Angle Neutron Scattering in a different solvent. The microgels were utilized for controlling polymorph crystallization by suspending ˜10 μg of microgels per 1 ml solution by stiffing. Such a low microgel concentration may be sufficient to effect drastic change in the crystallization behavior (discussed later), underscoring the effectiveness of polymer microgels in controlling crystallization. In all crystallization experiments, supersaturation of the solution was generated by cooling instead of solvent evaporation, despite its popularity in numerous polymorph studies, to yield better control over the crystallization process. […]
Accompanying the impact on CBZ polymorphic outcomes is the ability of the microgels in altering the CBZ nucleation kinetics, characterized by the average nucleation induction time τ (Table 9). Induction time was measured by monitoring IR transmission signal passing through a solution in controlled temperature environment and stirring condition. […]

With NC(=O)N1c2ccccc2C=Cc2ccccc21 [CBZ, carbamazepine] the “CBZ concentration in the polymer gel relative to the bulk” value [1] was 3-4 times, the “reduction of CBZ average induction time relative to bulk samples” value ([2]; microgels of higher M) was “at least an order of magnitude” and the “shortening of CBZ average induction time relative to bulk samples” value ([2]; microgels with M=130 and 200 g/mol) was 2-3 fold.
